{
  "source": "ChEMBL document CHEMBL1136405",
  "about": "“Acyclic N-(azacycloalkyl)bisindolylmaleimides: isozyme selective inhibitors of PKCbeta” (Bioorg Med Chem Lett, 2003)",
  "target": "Protein kinase C (PKC)",
  "assay": "Inhibition of purified rat brain protein kinase C (RB-PKC)",
  "data": [
    {"smiles": "CCN1CCC(n2cc(C3=C(c4cn(C)c5ccccc45)C(=O)NC3=O)c3ccccc32)CC1", "values": [
      {"measurement": "IC50", "result": 200, "unit": "nM"}
    ]}
  ]
}
